This assay deals with human Fhit (Homo sapiens, UniProt P49789). The experiment in a line: TLC and radioactivity of labelled NH2-pA; Eadie–Hofstee plot. Conditions: ammonolysis; 185 mM NH3, 200 mM CAPS/NaOH pH 10.6; F-pA 0.62–5 mM; labelled compound (8-3H).

Amino acid sequences for entries named in this document (tags omitted). A change or cut given only in a name is not applied to a line headed by its entry.
UniProt P49789: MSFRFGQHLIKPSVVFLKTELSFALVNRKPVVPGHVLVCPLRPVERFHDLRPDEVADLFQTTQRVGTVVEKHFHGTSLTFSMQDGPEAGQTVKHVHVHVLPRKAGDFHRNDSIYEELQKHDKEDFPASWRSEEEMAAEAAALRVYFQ

For orientation: Km means the substrate concentration at which the rate is half of its maximum.

As to F-pA, the Km was 1600 µM.

The values are drawn from publication PMC4613722, “Adenylylsulfate–ammonia adenylyltransferase activity is another inherent property of Fhit proteins” (2015).
